Read-outs that look alike come from different tables or passages of the source.
Experimental: C. […] The amount of either tested drug for one kg mouse was prepared as 10 ml solution, and 10 micro-liters per gram of mouse were injected intraperitoneally, once or twice daily, for 10 consecutive days for the Kunming mice with Sarcoma S-180 and Hepatoma H22, and for 15 consecutive days for C57BL/6 mice with melanoma B16. 50% glucose, 30 ml/kg, was given by gavage to selected groups of mice receiving the tested drug 60 to 90 minutes before each injection. One group of mice received saline only while another group of mice received the glucose treatment without the tested drug; these groups served as the saline-only control and the glucose-only control, respectively. A third group of mice received intraperitoneal injection of cyclophosphamide (CTX), or 5-Fluorouracil (5FU), 25 to 50 mg/kg body weight, was included in some experiments as positive control. At the end of the experiment, mouse body weight was taken, and the Sarcoma S-180, or Hepatoma H22 tumors were dissected and weighted, while the tumor size of melanoma B16 was measured using a caliper. Melanoma B16 tumor volume was calculated using the following equation: Tumor volume=S*S*L*0.5, where S is the short diameter, and L stands for long diameter of the tumor according to Beck M T et al. (Cancer Research 63:3598, 2003).

Row | Structure (SMILES) | Animal growth retardation (mouse, in vivo) | General appearance of mice during administration (mouse, in vivo) | Toxicity (conclusion) (tumor-bearing mice, i.p. treatment) | Toxicity (conclusion) (mouse, in vivo, ip)
1 | C1N2CN3CN1CN(C2)C3.O=C(O)C(O)c1ccccc1 (stereo not drawn) [MAIN, methenamine mandelate] | significant animal growth retardation | all mice looked healthy | slight toxicity | –
2 | C1N2CN3CN1CN(C2)C3 [URIN, Methenamine] | no significant animal growth retardation | all mice looked healthy | – | no significant toxicity

From US20060079463A1, “Anticancer compositions comprising methenamine” (priority 2003, published 2006)
